In patent US11779768B2, “Protein activity modification” (Impulse Dynamics NV, priority 2004, dated 2023):

System: phospholamban serine-16
Experiment: Phosphorylation of PLB at serine-16 in failing LV tissue homogenate with/without protein kinase inhibitor and CCM signal (Western blot)
Type: biochemical, dog
Conditions: Control + PK Inhibitor (no CCM)

Compound: CN[C@@H]1C[C@H]2O[C@@](C)([C@@H]1OC)n1c3ccccc3c3c4c(c5c6ccccc6n2c5c31)C(=O)NC4 [STAUROSPORIN]
- P-PLB serine-16, single sample (10 sec): 13.7
- P-PLB serine-16, single sample (30 sec): 11.9
- P-PLB serine-16, Av (60 sec): 12.4
